The record followed here is paper PMC10620186, “Recognition and reprogramming of E3 ubiquitin ligase surfaces by α-helical peptides” (Nature Communications, 2023).

SMILES strings stand for the structures.

This experiment deals with MDM2:β-catenin ternary complex. The following applies: SPR ABA, immobilized MDM2^25–109, β-catenin up to […], 10 μM Helicon.

Regarding `CC[C@H](C)[C@H](NC(=O)[C@H](C)NC(=O)[C@H](CCC(N)=O)NC(=O)[C@H](CCC(N)=O)NC(=O)[C@H](CCC(=O)O)NC(=O)[C@H](CCSC)NC(=O)[C@@H]1CCCN1C(C)=O)C(=O)N[C@H]1CSCC(=O)Nc2ccc(cc2)NC(=O)CSC[C@@H](C(=O)N[C@@H](CC(C)C)C(=O)N[C@@H](C)C(=O)N[C@@H](CC(=O)O)C(=O)N[C@@H](CC(=O)O)C(=O)N[C@@H](Cc2c[nH]c3ccccc23)C(=O)N[C@H](C(N)=O)[C@@H](C)O)NC(=O)[C@H](CCSC)NC(=O)[C@H](Cc2c[nH]c3ccccc23)NC(=O)[C@H](C)NC(=O)[C@H](C)NC(=O)[C@H](CCC(N)=O)NC(=O)[C@H](Cc2ccccc2)NC1=O` [Helicon H329], the “fold weaker affinity in SPR than in in-solution FP assays” value is 5- to 10 fold. As to `CC[C@H](C)[C@H](NC(=O)[C@H](Cc1ccccc1)NC(=O)[C@H](Cc1ccc(O)cc1)NC(=O)[C@H](CC(C)C)NC(=O)[C@@H]1CSCC(=O)Nc2ccc(cc2)NC(=O)CSC[C@H](NC(=O)[C@H](CC(=O)O)NC(=O)[C@H](CCCNC(=N)N)NC(=O)[C@H](C)NC(=O)[C@H](CC(N)=O)NC(=O)[C@H](CCC(=O)O)NC(=O)[C@H](CO)NC(=O)[C@@H]2CCCN2C(C)=O)C(=O)N[C@@H](Cc2ccccc2)C(=O)N[C@@H](Cc2c[nH]c3ccccc23)C(=O)N[C@@H](C)C(=O)N[C@@H](C)C(=O)N[C@@H](Cc2c[nH]c3ccccc23)C(=O)N[C@@H](CC(=O)O)C(=O)N1)C(=O)N[C@@H](Cc1ccc(O)cc1)C(=O)N[C@@H](CCC(N)=O)C(N)=O` [Helicon H333], the “fold weaker affinity in SPR than in in-solution FP assays” value is 5- to 10 fold.
